Earlier results as cited in patent US12281304B2, “Compositions and methods for treating and preventing muscular disorders and dystrophies, steroid side effects, and inflammation” (Children's National Medical Center, priority 2018, dated 2025).

System: miRNA sequences
Conditions: known mechanism listed in Table 6; compounds will be tested; cited from earlier work

Row | SMILES | Activity
1 | O=C(O)c1ccc(O)c2ncccc12 [IOX1] | JMJD family inhibitor
2 | O=C(NCC(=O)N1CCCC1)Nc1ccc2cnccc2c1 [SGC707] | Protein arginine methyltransferase 3 (PRMT3) inhibitor
